# Biological target: human A1 adenosine receptor (Homo sapiens, UniProt P30542)
# Amino acid sequences for entries named in this document (tags omitted).
# UniProt P30542, whole entry: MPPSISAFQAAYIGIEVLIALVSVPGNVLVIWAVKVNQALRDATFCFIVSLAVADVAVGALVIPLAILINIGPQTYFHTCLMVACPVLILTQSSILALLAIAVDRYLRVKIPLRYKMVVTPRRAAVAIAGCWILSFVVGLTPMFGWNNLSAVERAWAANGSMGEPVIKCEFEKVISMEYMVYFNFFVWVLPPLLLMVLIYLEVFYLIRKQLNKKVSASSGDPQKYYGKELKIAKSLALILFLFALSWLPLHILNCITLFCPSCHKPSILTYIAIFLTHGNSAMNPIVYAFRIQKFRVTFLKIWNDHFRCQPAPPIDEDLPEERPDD
# Assay: fus1-LacZ β-galactosidase assay in yeast expressing human A1 adenosine receptor (Ste18-Gγ2, GPA41-Gαi3)
# Settings: NECA concentration of 10^−8 M, CPRG substrate
smiles,measurement,value
CCNC(=O)[C@H]1O[C@@H](n2cnc3c(N)ncnc32)[C@H](O)[C@@H]1O,stimulation of β-galactosidase activity,approximately 2 fold

# Source: patent US20030139427A1, “Bicyclic pyrimidinyl derivatives and methods of use thereof” (OSI Pharmaceuticals Inc., priority 2002, published 2003)
